Measurements as given in patent publication US20250120989A1, “BRIDGED TRICYCLIC CARBAMOYLPYRIDONE COMPOUNDS AND USES THEREOF” (priority 2023, published 2025).
Read-outs that look alike come from different tables or passages of the source.

Assays:
in vivo [1] = conditions: male, beagle, dog, plasma, iv, AUCINF, 30-minute infusion, dosed compound measured in plasma
in vivo [2] = conditions: male, beagle, dog, po
[3] = male, beagle, dog, in vivo, po, 300 mg
[4] = 1 mg/kg, dog IV 1.0 mg/kg, Group 1/Group 2

Row | SMILES | AUC(0-inf) (in vivo [1]; [4]) | AUC(0-inf) (in vivo [2]; 4 mg/kg) | Cmax (in vivo [2]; 4 mg/kg) | bioavailability (in vivo [2]; 4 mg/kg) | bioavailability (in vivo [2]; 175 mg) | AUC(0-inf) (in vivo [1]; 0.5 mg/kg, dog IV 0.5 mg/kg, Group 3) | AUC(0-inf) (in vivo [1]; 1 mg/kg, dog IV 1.0 mg/kg, Group 4) | % F [3] | AUCINF [3] | Cmax [3]
1 | CC1=NO[C@@]2(CC[C@H](C)N3C[C@H]2n2cc(C(=O)NCc4ccc(F)cc4F)c(=O)c(O)c2C3=O)C1 [Intermediate B, (3′S,5S,7′R)—N-(2,4-difluorobenzyl)-12′-hydroxy-3,3′-dimethyl-1′,11′-dioxo-1′,4′,5′,11′-tetrahydro-3′H,4H,7′H-spiro[isoxazole-5,6′-[2,7]methanopyrido[1,2-a][1,4]diazonine]-10′-carboxamide] | 1400 ± 226 µM·h | 1940 ± 435 µM·h | 39.6 ± 3.8 µM | 35.3 ± 10% | 9.2% |  |  |  |  | 
2 | COC1=NO[C@@]2(CC[C@H](C)N3C[C@H]2n2cc(C(=O)NCc4ccc(F)cc4F)c(=O)c(O)c2C3=O)C1 [Intermediate C, (3′S,5S,7′R)—N-(2,4-difluorobenzyl)-12′-hydroxy-3-methoxy-3′-methyl-1′,11′-dioxo-1′,4′,5′,11′-tetrahydro-3′H,4H,7′H-spiro[isoxazole-5,6′-[2,7]methanopyrido[1,2-a][1,4]diazonine]-10′-carboxamide] | 707 ± 98 µM·h | 1040 ± 177 µM·h | 28.5 ± 2 µM | 36.4 ± 1.6% | 2.9% | 250 ± 42 µM·h | 722 ± 98 µM·h |  |  | 
3 | COC1=NO[C@@]2(CC[C@H](C)N3C[C@H]2n2cc(C(=O)NCc4ccc(F)cc4F)c(=O)c(OCOC(=O)OCCOP(=O)(O)O)c2C3=O)C1 [Compound 3, (((3′S,5S,7′R)-10′-((2,4-difluorobenzyl)carbamoyl)-3-methoxy-3′-methyl-1′,11′-dioxo-1′,4′,5′,11′-tetrahydro-3′H,4H,7′H-spiro[isoxazole-5,6′-[2,7]methanopyrido[1,2-a][1,4]diazonin]-12′-yl)oxy)methyl (2-(phosphonooxy)ethyl) carbonate] |  |  |  |  |  |  |  | 12.9 ± 3.4% | 1860 ± 470 µM·h | 74.7 ± 21.4 µM
